Results as given in ChEMBL document CHEMBL1136550, “Discovery of orally bioavailable NK1 receptor antagonists” (Bioorg Med Chem Lett, 2003).

The chains behind the UniProt entries cited, without tags or fusion partners.
UniProt P25103, whole entry: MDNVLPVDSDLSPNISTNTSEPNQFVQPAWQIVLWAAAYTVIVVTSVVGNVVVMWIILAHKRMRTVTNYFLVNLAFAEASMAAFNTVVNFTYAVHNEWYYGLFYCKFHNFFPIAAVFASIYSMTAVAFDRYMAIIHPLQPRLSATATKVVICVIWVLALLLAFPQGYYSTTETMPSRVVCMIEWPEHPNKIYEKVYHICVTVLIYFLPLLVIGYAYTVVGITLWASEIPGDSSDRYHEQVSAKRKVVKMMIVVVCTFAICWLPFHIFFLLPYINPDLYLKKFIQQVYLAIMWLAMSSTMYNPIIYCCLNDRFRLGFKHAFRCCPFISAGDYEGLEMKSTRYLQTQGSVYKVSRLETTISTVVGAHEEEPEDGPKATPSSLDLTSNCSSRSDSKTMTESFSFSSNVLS

Target: Substance-P receptor (Homo sapiens, UniProt P25103)
Test: Displacement of [3H]-substance P from human NK1 receptor expressed in CHO cells
Assay type: cell-based

C[C@H](OC[C@@H](c1ccccc1)N1CCN(CCOCC(=O)O)CC1)c1cc(C(F)(F)F)cc(C(F)(F)F)c1
Ki: 2.51 nM
